Experimental data from article PMC11528232.
pKd: −log10 of the molar value.

By UniProt entry, the sequences of proteins in these tests, tags left out. Residues count along the entry.
UniProt P02745, 23-245: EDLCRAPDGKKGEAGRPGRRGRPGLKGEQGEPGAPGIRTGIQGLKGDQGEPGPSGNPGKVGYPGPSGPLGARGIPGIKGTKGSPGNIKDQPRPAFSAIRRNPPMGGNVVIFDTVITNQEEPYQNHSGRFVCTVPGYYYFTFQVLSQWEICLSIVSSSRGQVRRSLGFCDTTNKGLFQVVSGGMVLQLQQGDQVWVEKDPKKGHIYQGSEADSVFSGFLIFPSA
human C1q protein, UniProt P02746, 28-253: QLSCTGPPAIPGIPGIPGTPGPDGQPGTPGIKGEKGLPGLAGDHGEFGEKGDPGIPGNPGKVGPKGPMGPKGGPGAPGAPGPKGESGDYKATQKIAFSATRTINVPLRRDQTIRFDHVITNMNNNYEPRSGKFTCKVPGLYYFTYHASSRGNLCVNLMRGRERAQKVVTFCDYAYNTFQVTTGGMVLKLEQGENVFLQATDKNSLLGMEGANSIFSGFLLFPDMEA
human C1q protein, UniProt P02747, 29-245: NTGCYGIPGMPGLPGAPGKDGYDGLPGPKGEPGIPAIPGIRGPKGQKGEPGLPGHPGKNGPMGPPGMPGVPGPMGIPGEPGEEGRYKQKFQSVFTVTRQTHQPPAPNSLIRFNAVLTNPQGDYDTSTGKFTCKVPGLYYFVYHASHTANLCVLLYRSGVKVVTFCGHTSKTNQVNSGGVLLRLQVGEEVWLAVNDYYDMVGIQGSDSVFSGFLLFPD

Key:
CM311 (human) = assay: SPR
CMG901 (human) = assay: SPR

Substance: human C1q protein (from UniProt P02745 23-245; P02746 28-253; P02747 29-245) (complex)
- pKd (CM311 (human)): 7.32
- pKd (CMG901 (human)): 6.93
